Laboratory results as given in US20130345115A1.

Columns and labels:
[1] = target: (Δ1-28) H4 nucleosome (mononucleosome with FLAG-HA-tagged tailless human H4 lacking the first 28 amino acids) (human; human (293T cells)) (UniProt P62805); test: MudPIT, co-purification
[2] = target: Wild type H4 nucleosome (mononucleosome with FLAG-HA-tagged wild type human H4) (human; human (293T cells)) (UniProt P62805); test: MudPIT, co-purification

| amino acid coverage [1] [%] | peptide count [1] [peptides] | amino acid coverage [2] [%] | peptide count [2] [peptides] | Substance |
| --- | --- | --- | --- | --- |
| 30.6 | 11 | 31.8 | 12 | DNA (cytosine-5-)-methyltransferase 3 beta (from UniProt Q9UBC3 1-853) (enzyme) |
| 62.7 | 5 | 84.6 | 7 | Histone H4 (from UniProt P62805 2-103) |
| 23.7 | 8 | 29 | 11 | DNA (cytosine-5-)-methyltransferase 3 alpha (from UniProt Q9Y6K1 1-912) (enzyme) |
